Columns and labels:
[1] = tested on: colon cancer tissue arrays; assay: Staining of colon cancer tissue array (immunohistochemistry); assay type: binding; details: tissues D8, B7 and B5; FIG. 17
From the text: The colon cancer tissue arrays were purchased from BioChain Institute Inc. (Newark, Calif.) and used in the experiment. Each tissue array was stained according to the manufacturer's manual.

Wildtype DLD-1 cells = assay: Internalization of the antibody; assay type: cell-based, human; details: 488-labelled antibody; 37° C.; 1, 3 or 6 hours; FIG. 25
Experimental: Wildtype DLD-1 cells were plated on a 96-well plate at 5,000 cells/well. The plate was incubated at 37° C. for 18 hours. After washing, a 488-labelled 669 antibody was added to the wells at 2 μL/well and was incubated at 37° C. for certain hours (1 hour, 3 hours, or 6 hours). After the wells were washed three times, a rabbit anti 488 antibody was added at 2 μL/well to stand still at 4° C. for 30 minutes to quench the fluorescence derived from the antibodies binding to the cell surface. After the wells were washed three times, 4% PFA was added at 100 μL/well to stand still at room temperature for 10 minutes. After the wells were washed three times, DAPI (1/500 dilution) was added to the wells at 100 μL/well to stand still at room temperature for 5 minutes. After the wells were washed three times, the wells were subjected to photographing or Array Scan analysis. An anti-EGFR antibody, Cetuximab (Erbitux) was used as a control.

[2] = tested on: normal tissues (skin, brain, small intestine, liver, heart, lung, kidney); assay: Immune histochemistry of normal human tissues; assay type: binding; details: FIG. 13
Experimental: Next, the cancer-detection frequency by the antibodies was examined using various human tissue specimens which were obtained from those who had been diagnosed to have cancer. The paraffin sections were prepared from the tissue specimens in the same way as shown in Example 6 according to a routine procedure. The prepared sections were subjected to reactions with 1 μg/mL of one of the above antibodies. An HRP-labelled anti rat antibody was used as a secondary antibody, which emitted light with DAB. The observation was performed after hematoxylin staining. 1361 antibody-staining was negative in immune histochemistry of normal tissues from skin, brain, small intestine, liver, heart, lung and kidney.

wild type DLD-1 cells = assay: ADCC activity (51Cr release, TK176V effector cells), wild type DLD-1; assay type: cell-based, human; details: ET ratio 40; 4 hours; 0.064 to 1,000 ng/mL; FIGS. 20A to 20D
Experimental: Specifically, TK176V (a natural killer cell line stably expressing FcγRIII) was used as an effector cell, which was obtained from Chemicals Evaluation and Research Institute, Japan. The wild type DLD-1 cell line was used as a target cell.
T1 76V was cultured in RPM11640 containing 10 ng/mL IL-2 and 10% FBS. For passages, the medium was diluted with a fresh medium every 2 to 3 days. In the passage, the cells were detached by a trypsin treatment and then suspended in a fresh medium to be plated on a dish every 2 to 3 days.
The measurement of the ADCC activity was performed as described below.
First, the amount of 51Cr release was measured when only the target cells were cultured in medium as a negative control, which is referred to as “Spontaneous release measurement”. The amount of 51 Cr release was measured when the all target cells were damaged by adding 0.1% TRITON™ (surfactant) X-100, which is referred to as “Max release measurement.”
1) Adding DLD-1 WT labelled with 50 μCi of ^51Cr to a U-bottom, 96 well plate at 5,000 cells/50 μL/well.
2) Adding TK176V at 200,000 cells/50 μL/well (ET ratio: 40): A medium was added at 50 μL/well to the well for Spontaneous release measurement and the well for Max release measurement. […]

## cetuximab: anti-EGFR antibody, Cetuximab (Erbitux) [reference compound]
[1]
  staining of colon cancer tissue array: negative
Wildtype DLD-1 cells
  internalization into cells: limited
[2]
  reactivity to normal skin tissues: strong positive reaction
[2]; listed as Cetuximab
  reactivity to normal skin tissues: strong reactivity
Wild type DLD-1 cells
  ADCC activity against wild type DLD-1 cells: strong ADCC activity

From US11633499B2, “Anti-TMEM-180 antibody, anticancer drug and cancer testing method” (NATIONAL CANCER CENTER JAPAN, priority 2016, dated 2023)
